Assay [1] deals with T1, Translocator protein (Rattus norvegicus, UniProt P16257). The assay can be described thus: Displacement [3H]-PK 11195 from rat adrenal peripheral-type benzodiazepine receptor (PBR).
Assay [2] addresses T1, Translocator protein. The assay can be described thus: Binding affinity against peripheral-type benzodiazepine receptor (PBR) from rat cortex homogenate using [3H]-PK 11195 as radioligand.
Assay [3] concerns the target T1, Translocator protein. The assay is described as follows: Displacement of [3H]-Ro- 5-4864 from rat adrenal peripheral-type benzodiazepine receptor (PBR). (In a radioligand displacement assay an active substance lowers the binding of a labelled ligand.)

Amino acid sequences for entries named in this document (tags omitted).
UniProt P16257, whole entry: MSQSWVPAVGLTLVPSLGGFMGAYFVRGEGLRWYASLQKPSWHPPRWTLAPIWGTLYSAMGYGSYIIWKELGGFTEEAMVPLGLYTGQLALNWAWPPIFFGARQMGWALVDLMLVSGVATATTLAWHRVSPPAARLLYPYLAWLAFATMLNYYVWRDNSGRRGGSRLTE

For the compound `Cc1ccc(C2=C(OC(=O)N(C)C)c3cccn3-c3ccccc3O2)cc1`, the Ki on Translocator protein [1] amounted to 1.1 nM; on Translocator protein [2], 0.52 nM; on Translocator protein [3] it was 1.3 nM.

Turning to `CN(C)C(=O)OC1=C(c2ccccc2)Oc2ccccc2-n2cccc21`, the Ki at Translocator protein [1] amounted to 1 nM; on Translocator protein [2], 2 nM; on Translocator protein [3] it was 0.8 nM.

The Ki is a measure of affinity in units of concentration, obtained from inhibition or displacement. A low value points to tighter binding.
